Test results as given in patent publication US20090075925A1, “Methods and Compositions Related to APOBEC-1 Expression” (priority 2006, published 2009).
Where two headings read alike, the source gives them in different places.

Tested on: apoB mRNA editing
Protocol: Protein phosphatase inhibitor studies. […] The compounds' effects on apoB mRNA editing were evaluated by RT-PCR and poisoned-primer extension analysis (Sowden et al. Rna 2:274-88 (1996)). The effect of 470 nM cantharidin on ACF subcellular distribution was investigated by treating primary hepatocyte cultures for 6 hours followed by nuclear and cytoplasmic extract preparation.
It was reasoned that if phosphorylation of ACF regulated editing activity, treatment of rat primary hepatocytes with phosphatase inhibitors might stimulate apoB mRNA editing activity. […] The experiments (n=4-6) were done over a number of months and therefore represent primary hepatocytes from several rats.
Editing activity was quantified from primary hepatocytes incubated with 10-100-times the EC50 of the various […] (Calbiochem).

CC(C)NCC(O)c1ccc(O)c(O)c1 (stereo not drawn) [Isoproterenol]
apoB mRNA editing, Mean (1 μM): 60.6%
apoB mRNA editing, Mean (10 μM): 68.1%
apoB mRNA editing, Mean (100 μM): 72.3%
